Assay results reported in US20230203058A1, “MACROCYCLIC DIAMINE DERIVATIVES AS ENT INHIBITORS FOR THE TREATMENT OF CANCERS, AND COMBINATION THEREOF WITH ADENOSINE RECEPTOR ANTAGONISTS” (ITEOS BELGIUM SA, priority 2020, published 2023).
Like-named read-outs stand apart in the source and are kept apart here.

By UniProt entry, the sequences of proteins in these tests, tags left out.
UniProt Q99808, whole entry: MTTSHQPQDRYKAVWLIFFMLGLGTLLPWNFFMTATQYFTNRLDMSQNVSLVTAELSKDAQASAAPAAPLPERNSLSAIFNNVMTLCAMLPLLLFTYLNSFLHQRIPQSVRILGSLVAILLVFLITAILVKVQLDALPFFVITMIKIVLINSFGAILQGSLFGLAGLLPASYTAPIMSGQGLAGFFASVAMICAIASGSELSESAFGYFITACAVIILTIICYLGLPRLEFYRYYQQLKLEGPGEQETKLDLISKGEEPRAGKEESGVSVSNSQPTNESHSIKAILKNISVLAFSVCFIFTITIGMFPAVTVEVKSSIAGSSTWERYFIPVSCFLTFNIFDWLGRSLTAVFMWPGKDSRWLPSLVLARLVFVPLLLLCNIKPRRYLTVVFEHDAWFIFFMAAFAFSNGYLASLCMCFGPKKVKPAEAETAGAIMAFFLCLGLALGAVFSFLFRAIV
UniProt Q12809, whole entry: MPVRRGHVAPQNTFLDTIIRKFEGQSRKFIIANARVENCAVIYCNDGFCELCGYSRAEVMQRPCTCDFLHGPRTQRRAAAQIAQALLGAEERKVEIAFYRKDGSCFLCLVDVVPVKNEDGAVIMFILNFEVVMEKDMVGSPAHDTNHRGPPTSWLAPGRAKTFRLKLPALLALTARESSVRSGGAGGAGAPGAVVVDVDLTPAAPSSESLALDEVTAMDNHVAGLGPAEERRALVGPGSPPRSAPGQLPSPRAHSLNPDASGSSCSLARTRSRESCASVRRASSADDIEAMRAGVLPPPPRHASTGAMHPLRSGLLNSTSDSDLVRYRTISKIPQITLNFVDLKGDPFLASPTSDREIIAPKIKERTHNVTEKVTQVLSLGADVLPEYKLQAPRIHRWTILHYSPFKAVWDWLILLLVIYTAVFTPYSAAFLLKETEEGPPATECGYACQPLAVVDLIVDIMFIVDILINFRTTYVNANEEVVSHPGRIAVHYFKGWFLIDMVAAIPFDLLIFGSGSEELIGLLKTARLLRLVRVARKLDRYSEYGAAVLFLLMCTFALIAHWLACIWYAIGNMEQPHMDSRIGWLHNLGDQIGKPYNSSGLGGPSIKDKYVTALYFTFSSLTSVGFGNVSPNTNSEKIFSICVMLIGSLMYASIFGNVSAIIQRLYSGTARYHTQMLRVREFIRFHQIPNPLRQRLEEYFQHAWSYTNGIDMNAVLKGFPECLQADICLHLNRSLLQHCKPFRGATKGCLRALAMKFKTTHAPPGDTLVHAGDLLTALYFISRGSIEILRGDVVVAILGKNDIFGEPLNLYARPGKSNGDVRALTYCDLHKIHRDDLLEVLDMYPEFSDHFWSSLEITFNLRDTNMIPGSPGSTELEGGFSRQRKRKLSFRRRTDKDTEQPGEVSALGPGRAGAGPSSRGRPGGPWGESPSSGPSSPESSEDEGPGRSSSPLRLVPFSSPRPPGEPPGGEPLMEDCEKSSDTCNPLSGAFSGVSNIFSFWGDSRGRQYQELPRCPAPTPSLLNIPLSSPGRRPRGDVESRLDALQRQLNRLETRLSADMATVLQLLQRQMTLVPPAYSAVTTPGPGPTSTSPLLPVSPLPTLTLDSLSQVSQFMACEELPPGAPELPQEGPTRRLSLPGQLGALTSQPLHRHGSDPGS

Assays:
human ENT1 [1] = biological target: T1, human ENT1 (Homo sapiens, UniProt Q99808); experiment: ENT1 binding assay (competition with Sahenta-DY647 on JAR cells); details: read-out: Binding Assay IC50, competition with Sahenta-DY647 100 nM, 4° C.
Experimental: The present assay aims at showing that the compounds of the present invention can bind to human ENT1. The principle of the assay is a competition between the compounds of this invention and Sahenta-DY647, an ENT1 inhibitor that emits fluorescence (Ex = 630 nm, Em = 670 nm). By measuring the fluorescence at the end of the assay we could assess the binding potency of the compounds of the present invention.
JAR cells expressing ENT1 were bought from ATCC® (HTB-144TM). Cells were cultured in RPMI 1640 medium (LONZA®, #BE12-702F/U1) supplemented with 10% FBS (GIBCO®, #10270-106), 10 mM Hepes (LONZA®, #BE17-737E), 1 mM Sodium Pyruvate (LONZA®, #BE13-115E) and 2% Penicillin/Streptomycin (LONZA®, #DE17-603E) at 37° C. and 5% CO2. The assay was conducted on the following buffer: HBSS (LONZA®, #LO-527F) supplemented with 10 mM Hepes (LONZA®, #BE17-737E) and 0.1% BSA (Miltenyi®, #130-091-376) on the day of the assay. JAR cells were resuspended in the described buffer. Compounds of the present invention and Sahenta-DY647 were diluted 200X in the described buffer.
A total of 50000 cells were pre-incubated for 30 min at 4° C. with the compounds of the present invention before adding the corresponded IC90 of Sahenta-DY647 (100 nM) and incubate once more for 30 min at 4° C. […]

[2] = test system: stimulated primary human T cells; experiment: T cell proliferation assay (rescue of proliferation in presence of ATP, CFSE dilution); details: 100 uM ATP
Experimental: The aim of this study was to determine the potency of equilibrative nucleoside transporter 1 (ENT1) inhibitors to rescue proliferation by stimulated primary human T cells incubated in the presence of 100 uM Adenosine triphosphate (ATP), in baseline conditions (condition A) or in the presence of various proteins known to bind small molecules (condition B). Condition A: X-VIVO15 Condition B: X-VIVO15, 2% Human Serum Albumine (HSA) and 0,1% α-1-Acid Glycoprotein (AAG)
Cryopreserved purified human CD3+ T cells were thawed and washed twice with RPMI1640 medium, UltraGlutamine containing 10% hiFBS.
Cells were suspended in PBS containing 10% hiFBS. Cells were stained with CFSE by adding 2 µM solution in PBS, to get a final 1 µM CFSE solution. Cells were incubated while rotating for 5 minutes. Reaction was stopped by adding PBS with 10% FBS and cells were centrifuged for 5 minutes at 1500 rpm.
Cells were resuspended at 1.6 ×10^6 cells/mL, either in X-VIVO15 medium or in 4% Human Serum Albumin and 0,2% α-1-Acid Glycoprotein. 50 µL of cell suspension (8×10^4 T cells) was added to wells of sterile round-bottom 96-well plates. […] After 72 or 96 hours, proliferation was measured determined by CFSE dilution via flow cytometry.

hERG ion channel = hERG ion channel (Homo sapiens, UniProt Q12809)
human ENT1 [3] = biological target: T1, human ENT1; experiment: Uridine transport inhibition assay (3H-uridine uptake in MDCKII-ENT1-LV cells); type: cell-based; details: read-out: Uridine transport inhibition assay IC50, uridine 1 µM, 1 min at 25° C.
From the text: The aim of this study was to determine the potency of equilibrative nucleoside transporter 1 (ENT1) inhibitors by measuring ENT1-mediated transport is the cellular uptake assay. The human ENT1 transporter can be stably expressed in Madin-Darby Canine Kidney II (MDCKII) cells via transduction. Uridine is efficiently transported by ENT1 and is used as probe in the assay as 3 H-uridine. The interaction is detected as the modulation of the initial rate of 3 H-uridine transport by human ENT1 into MDCKII-ENT1-LV cells stably expressing ENT1 uptake transporter.

Q: With `COc1cc(C(=O)OC2CCCOc3cc(cc(OC)c3OC)C(=O)OCCCN3CCCN(CC2)CC3)cc(OC)c1OC` (racemic) as the compound, how does the IC50 (human ENT1 [1]) read?
A: 1 to 20 nM

Q: What about the IC50 ([2]; read-out: (2) T Cell proliferation (Condition B) IC50, Condition B: X-VIVO15, 2% HSA and 0,1% AAG) of the same compound?
A: < 1 nM

Q: And the IC50 ([2]; read-out: T Cell proliferation (Condition A) IC50, Condition A: X-VIVO15)?
A: < 0.1 nM

Q: What about the IC50 (hERG ion channel) of the same compound?
A: 800 nM

Q: What about the IC50 (human ENT1 [3]) of the same compound?
A: 1 to 20 nM
